Amino acid sequences for entries named in this document (tags omitted). Residues count along the entry.
UniProt P01106, 368-454 limits assumed: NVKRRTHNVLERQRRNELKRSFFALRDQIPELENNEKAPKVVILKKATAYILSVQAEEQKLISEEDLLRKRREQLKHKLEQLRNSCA

In patent publication US7872027B2, “Low molecular weight Myc-max inhibitors” (University of Pittsburgh - Of the Commonwealth System of …, priority 2006, dated 2011):

Columns and labels:
[1] = tested on: HL60 human promyelocytic leukemia cells; experiment: HL60 cell growth inhibition (trypan blue cell counts)
Experimental: Note that all structures shown herein are drawn in their Z-isoform and some bonds have been standardized. IC50's here, as well as below for in FIGS. 2 and 3, were calculated based upon dose-response profiles on day 5 following the addition of each compound.
HL60 human promyelocytic leukemia cells were grown in RPMI medium supplemented with 10% fetal calf serum, 100 U/ml penicillin G, and 100 μg/ml streptomycin (all from Mediatech, Inc., Herndon, Va.). Rat fibroblast lines were grown under similar conditions in Dulbecco's modified minimal essential medium. To determine the effects of Myc-Max compounds on HL60 cell growth, logarithmically growing cells (>90% viability) were resuspended in fresh medium. Four (4) ml (a total of 16,000 cells) were then seeded into 6-well plates in the presence of the indicated amount of Myc-Max compound. In all cases, 10058-F4 was included as a reference compound. Daily cell counts were performed manually in triplicate on a hemacytometer using trypan blue exclusion. Viabilities exceeded 85% throughout the course of the experiment.
Each compound was initially tested for its ability to inhibit the growth of the HL60 human promyelocytic leukemia cell line, which expresses high levels of c-Myc as a result of gene amplification (Park S—H, et al. Methods Mol Biol 2004; 261:161-165 (2004)). […]

c-Myc-Max(S) heterodimer = c-Myc-Max(S) heterodimer (Homo sapiens, UniProt P01106); experiment: electrophoretic mobility shift assay (EMSA), E-box DNA binding; settings: for inhibition of E-box DNA binding by c-Myc-Max(S): 60 nM each protein, 10 nM oligonucleotide
Experimental: Equivalent amounts of nuclear extracts were incubated with the indicated concentrations of the compounds depicted in FIGS. 1-3. Following precipitation of the complexes with an anti-Max antibody, the total amount of associated c-Myc was detected by immunoblotting (top panel). As a control, the lower portion of the blot was probed with an anti-Max antibody (bottom panel). FIGS. 4B, 4C and 4D show EMSAs results. Recombinant c-Myc353-439 (which encodes the complete bHLH-ZIP dimerization domain) and full-length Max(S) were purified to homogeneity from E. coli and used at a final concentration of 60 nM in the presence of the indicated concentration of compound.
Electrophoretic mobility shift Assays (EMSAs). Experiments were performed on 8% polyacrylamide:bis-acrylamide (80:1) gels in 0.5×TBE. Binding reactions were prepared in a buffer consisting of 1×PBS (pH 7.3); 1 mM EDTA; 0.1% NP40; 5% glycerol; 1 mM dithiothreitol; and 0.4 mg/mL BSA. A 22 base-pair E-box-containing double-stranded DNA oligonucleotide labeled on one strand with hexachlorofluoresceine (HEX) consisted of the following sequence:
and was synthesized by Integrated DNA Technologies Inc (Coralville, Iowa). The oligonucleotide was used at 10 nM concentration in all reactions, which also contained 60 nM each of purified c-Myc bHLH-LZ, Max(S), and the indicated amount of each compound. Proteins were first incubated for 90 min at 25° C., followed by addition of the oligonucleotide and an additional 15 minutes incubation before loading on a running gel. Gels were run at 20° C. and scanned on a BioRad FX molecular imager (BioRad, Hercules, Calif.). Data were analyzed with BioRad Quantity One software.
The second method used to gauge the effects of 10058-F4 and its analogs on c-Myc-Max complexes relied on the use of a simple, three component electrophoretic mobility shift assay (EMSA). […] The ability of the resultant heterodimer to bind a double-stranded target oligonucleotide containing a consensus E-box motif was then assessed by PAGE. […]

[2] = molecular target: c-Myc353-439 (c-Myc bHLH-LZ monomer) (Homo sapiens, UniProt P01106); experiment: fluorescence polarization binding / titration assay; settings: for Kd: read-out: affinity for c-Myc353-439 (Kobs), 25° C., equimolar two-fold dilutions
Experimental: Fluorescence polarization assays. Samples of inhibitor at 25 μM concentration, in the absence and presence of an equimolar concentration of purified c-Myc353-439 peptide, were prepared in 1×PBS buffer (pH 7.4); 1 mM DTT; 5% DMSO. The samples were analyzed in a Photon Technology International QuantaMaster fluorimeter (Birmingham, N.J.) equipped with polymer sheet polarizers at an excitation wavelength of 380 nm and an emission wavelength of 468 nm. Alternative settings (ex: 470 nm; em: 600 nm), were employed for the compounds 7RH and 8RH, which have longer wavelength absorption and emission spectra. Each sample was analyzed in triplicate at 25° C. with sample specific G-factor determination. Titration experiments were performed with the same instrumental settings, temperature, and buffer conditions upon two-fold serial dilution of equimolar mixtures of inhibitor and c-Myc353-439. Reported data represent the average of three to five independent experiments. Data were fit to a quadratic equation derived from the thermodynamic expression of binding equilibrium:
[formula] where [C]0 represents the total concentration of inhibitor and of c-Myc353-439. The value of Kobs was determined from the experimental polarization data by fitting to Eq. 2 using KaleidaGraph (Synergy Software, Reading, Pa.) where pol0 is the polarization in the absence of binding and Δpol is the total change in polarization (Park S-H, Raines R T. Fluorescence polarization assay to quantify protein-protein interactions, Methods Mol Biol 2004; 261:161-165 (2004)).
10058-F4 and its analogs bind directly to c-Myc. Previous studies with 10058-F4 and other structurally unrelated index compounds had not specifically addressed the question of whether their binding required intact c-Myc-Max heterodimers or could occur on monomeric forms of the proteins. In order to address this, we took advantage of the fact that 10058-F4, and most of its analogs, are fluorescent and can depolarize an incident beam of light. Because the degree to which this occurs is partly a function of the molecule's rate of tumbling in solution, binding to either c-Myc or Max should result in a loss of fluorescence depolarization.
The binding affinities for selected active compounds were determined by titrating them with c-Myc353-439 and following the change in polarization of their intrinsic fluorescence. […] When excited with polarized light, they emit substantially depolarized light due to their rotation during the fluorescence lifetime. When the compounds are bound to c-Myc353-439, the polarization increases due to slower tumbling and this change can be used to calculate an observed binding constant. The affinity of parental 10058-F4 for c-Myc353-439 determined this way was […]±0.7 μM (FIGS. 6A-6D). […]

| Structure (SMILES) | activity in HL60 cells compared with 10058-F4 ([1]; 10058-F4 in parallel) | inhibition of E-box DNA binding by c-Myc-Max(S) (c-Myc-Max(S) heterodimer) | inhibition of E-box DNA binding by c-Myc-Max(S) (c-Myc-Max(S) heterodimer; listed as 12RH-NCN1) | affinity for c-Myc353-439 compared with 10058-F4 [2] | Kd [2] [nM] | IC50 ([1]; read-out: ID50, HL60 cell growth, dose-response profiles on day 5 following addition of compound) [nM] | activity in EMSA or co-IP assays compared with 10058-F4 (c-Myc-Max(S) heterodimer; EMSA or co-IP assays) |
| --- | --- | --- | --- | --- | --- | --- | --- |
| O=C1/C(=C/c2ccc(Cl)cc2)SC(=S)N1CN1CCCCC1 | activities comparable to that of 10058-F4 | quite effective at eliminating E-box binding | among the most effective | tightest binding compound | 600 |  |  |
| CC(C)c1ccc(/C=C2\SC(=S)NC2=O)cc1 |  |  |  | bind better than 10058-F4 | 1000 | 36000 | appeared superior to 10058-F4 |
